Results taken from publication PMC3601784 (Chromatographia, 2012).

Amino acid sequences for entries named in this document (tags omitted).
UniProt P34913, whole entry: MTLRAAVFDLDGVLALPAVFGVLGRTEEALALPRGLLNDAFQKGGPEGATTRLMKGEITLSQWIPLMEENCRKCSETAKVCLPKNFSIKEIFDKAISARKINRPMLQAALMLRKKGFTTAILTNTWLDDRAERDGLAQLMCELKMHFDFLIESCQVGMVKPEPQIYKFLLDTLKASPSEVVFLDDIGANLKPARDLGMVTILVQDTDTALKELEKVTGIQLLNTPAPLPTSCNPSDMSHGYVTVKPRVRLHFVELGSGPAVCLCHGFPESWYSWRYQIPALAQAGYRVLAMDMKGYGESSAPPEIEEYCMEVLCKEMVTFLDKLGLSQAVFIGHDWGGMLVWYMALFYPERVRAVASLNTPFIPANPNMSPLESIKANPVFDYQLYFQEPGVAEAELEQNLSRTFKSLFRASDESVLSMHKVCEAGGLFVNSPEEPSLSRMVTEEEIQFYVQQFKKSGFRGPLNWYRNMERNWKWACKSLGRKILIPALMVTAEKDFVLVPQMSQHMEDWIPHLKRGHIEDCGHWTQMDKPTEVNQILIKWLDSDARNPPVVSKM

Molecular target: Human recombinant sEH (Homo sapiens, UniProt P34913)
Assay: LC-BCD/MS
Assay type: biochemical
Settings: mixture of sEHi 6, sEHi 1, sEHi 7, diclofenac and phenylbutazone separated by LC

O=C(O)Cc1ccccc1Nc1c(Cl)cccc1Cl [diclofenac]
sEH activity (BCD peak) in a standard mixture: without sEH activity
